Binding of CDR-mutated scFvs to a peptide of the spike HR2 region

The measurements come from Engelhart et al. 2022 (doi:10.1038/s41597-022-01779-4) through the FLAb antibody collection.

The target is the same throughout: PDVDLGDISGINAS, from the HR2 region of SARS-CoV-2 spike.

Each scFv is VH, the linker GGGGSGGGGSGGGGS, VL, as in the parent Ab-95, and differs from it in the CDRs of the light chain only.
VH: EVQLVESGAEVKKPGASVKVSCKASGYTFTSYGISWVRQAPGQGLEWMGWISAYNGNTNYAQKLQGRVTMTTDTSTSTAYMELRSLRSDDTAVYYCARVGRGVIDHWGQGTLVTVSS
VL: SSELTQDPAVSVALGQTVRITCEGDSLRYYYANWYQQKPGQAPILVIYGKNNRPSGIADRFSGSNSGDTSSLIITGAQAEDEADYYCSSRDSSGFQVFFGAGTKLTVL

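The parent was found by panning a naive human phage display library on the peptide. Variants in AAYL52 differ from the parent at up to three CDR positions; double and triple changes were sampled at random. Affinity was read by AlphaSeq, a pooled yeast mating assay with surface-displayed partners. Binding brings cells together so that they mate, and sequencing counts the barcode pairs among the diploids. Read counts were normalised to the haploid input and turned into Kd by a linear fit to BCL2-family pairs of known affinity, for each replicate. Mating was done three times.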

Variants are written as CDR1, CDR2 and CDR3 of the light chain (limits as in the source). Parent: EGDSLRYYYAN, GKNNRPS, SSRDSSGFQVF. All variants listed here change D25 of the VL, counted from its first residue. Kd is apparent (estimated from mating counts) and averaged on the log scale over replicates with a signal. Smaller is tighter. "no signal" means that the variant was in the library but no mating with the target was seen in any replicate; the authors take this as a sign of poor binding, and no number exists. In this assay the parent's reference entry averaged 200 nM; its copy inside this library read 180 nM. Nonspecific signal, from three strains lacking the peptide, appeared in 28% of pairings of library AAYL52, centred on 8.2 µM (5% of these signals below 800 nM); values are not corrected for it.

Variant EGKSLRYYQAN | GKNNRPS | SSRDSSGFQVC showed 46 nM (3 of 3 replicates). For EGWSLRYYYAN | GKNNRPS | SSDDSSPFQVF, the assay gave no signal (0 of 3 replicates). Variant EGHSLRYYYAN | GKNNRPN | SSRDSSGFQVF showed 240 nM (3 of 3 replicates). With EGCSLRMYYAN | GKNNRPS | SSRDSSGFQVC the result was no signal (0 of 3 replicates). With EGYSLRYYYAN | GKNNRPS | SSRDSAGFQEF the result was 640 nM (3 of 3 replicates). With EGMSLRYHYAN | GKNNRRS | SSRDSSGFQVF the result was 340 nM (3 of 3 replicates). For EENSLRYYYAN | GKNNRPS | SSRDSSGFDVF, the assay gave no signal (0 of 3 replicates).

For EGQSARYYYAN | WKNNRPS | SSRDSSGFQVF, the assay gave 6.0 µM (2 of 3 replicates). For EGKSLRYYYAN | GKNNRPS | SSRDSSGFQVF, the assay gave 69 nM (3 of 3 replicates). Variant EGLSLRYYYAN | GECNRPS | SSRDSSGFQVF showed no signal (0 of 3 replicates). Variant EGFSLRYYYAN | GKNNSCS | SSRDSSGFQVF showed 44 µM (1 of 3 replicates). Variant EGPFIRYYYAN | GKNNRPS | SSRDSSGFQVF showed 9.6 µM (3 of 3 replicates). With EGPSLRYYYAR | GKNNRPS | SSRDSSGSQVF the result was 17 µM (1 of 3 replicates). Variant EGGSLRYYYAN | GKNHRPS | SSRWSSGFQVF gave 9.9 µM (2 of 3 replicates).

For EGCSLRYYYAN | GKNNRPS | SSRDSSPFQVF, the assay gave 1.7 µM (2 of 3 replicates). For EGFSLREYYAN | GKNNVPS | SSRDSSGFQVF, the assay gave 4.4 µM (3 of 3 replicates). For EGRSLRYYGAN | GKDNRPS | SSRDSSGFQVF, the assay gave 40 nM (3 of 3 replicates). Variant HGLSLRSYYAN | GKNNRPS | SSRDSSGFQVF showed 60 nM (3 of 3 replicates). With EGWSLRYYYAN | AKNNRPS | SSRDSYGFQVF the result was 21 µM (2 of 3 replicates). Variant EGHSLRYPYAN | GKNNRPS | SSRDSSGFQVF gave 380 nM (3 of 3 replicates). With EGGSLRYYYAN | GKNNRYS | SSRDSSGFKVF the result was 23 µM (2 of 3 replicates).

For EGQSLRYYYAN | GKFNRPS | SSRDSSGFQGF, the assay gave 4.7 µM (1 of 3 replicates). With EGGSLRYYYAN | CKNNRPS | SSRDSSGFQVF the result was 3.0 µM (3 of 3 replicates). For EGSSLRYYYAN | GKNNRPS | SHRESSGFQVF, the assay gave no signal (0 of 3 replicates). With EGKSLMYYYAN | GKNNRPS | SSRDSSGFQVF the result was 200 nM (3 of 3 replicates). With EGSMLRYYYAS | GKNNRPS | SSRDSSGFQVF the result was 1.3 µM (3 of 3 replicates). Variant EGGSLRYYYAN | GKNMRPS | SSRDWSGFQVF gave 130 nM (3 of 3 replicates). Variant EGCSLRYYYAN | GKNNRPS | SSRDSSGFPVF gave 5.0 µM (1 of 3 replicates).

Variant EGNSLRYYYAN | GKNNRFS | SSRDSSCFQVF gave no signal (0 of 3 replicates). With EGVSLRYYYAN | GKNNRPS | SYRDSSPFQVF the result was 1.6 µM (3 of 3 replicates). Variant EGVSLRYYYAV | GKNNRPS | SSRNSSGFQVF gave 9.1 µM (1 of 3 replicates).

Picked from the list: the 4 lowest averages where every replicate gave a value.

| CDR-L1 | CDR-L2 | CDR-L3 | Kd (apparent) | replicates with signal |
|---|---|---|---|---|
| EGRSLRYYGAN | GKDNRPS | SSRDSSGFQVF | 40 nM | 3/3 |
| EGKSLRYYQAN | GKNNRPS | SSRDSSGFQVC | 46 nM | 3/3 |
| HGLSLRSYYAN | GKNNRPS | SSRDSSGFQVF | 60 nM | 3/3 |
| EGKSLRYYYAN | GKNNRPS | SSRDSSGFQVF | 69 nM | 3/3 |